Measured values published in paper PMC7056512 (Cancer research, 2020).

Key:
CUHN013 PDX = assay: PDX efficacy study; assay type: in vivo, Athymic Nude-Foxn1^nu mice; conditions: radiation plus SVC112, twice weekly
How it was run: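 Tumor pieces from 4th-8th-generation PDX implanted on both flanks of 6-10-week-old female mice. Anesthetized mice shielded except flank tumors and irradiated at 3 Gy (115 cGy/min) twice weekly for four weeks. Test compound given IP at 60mg/kg right after irradiation and 6h later. Tumors measured twice weekly. ALDH+CD44high CSC fraction measured by flow cytometry on day 28, then related to tumor treatment/control ratio by linear regression.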

[1] = system: non-tumor bearing female Balb/C mice; conditions: 60mg/kg IP q6h x 2, once per week, 4 weeks
[2] = media incubated 24h with cells, then transferred

## Meta Br-N-29-H derivative of RA-VII [SVC112]
CUHN013 PDX
  body weight vs control animals: Significant weight loss
[1]
  histopathology: no abnormal histopathology was observed
[2]
  stability in media: inhibited protein synthesis, proliferation, and suppressed protein levels like fresh drug
